Sequences of proteins named here, by UniProt entry; tags and fusion partners are left off. A change or cut given only in a name is not applied to a line headed by its entry.
UniProt G1T8E2: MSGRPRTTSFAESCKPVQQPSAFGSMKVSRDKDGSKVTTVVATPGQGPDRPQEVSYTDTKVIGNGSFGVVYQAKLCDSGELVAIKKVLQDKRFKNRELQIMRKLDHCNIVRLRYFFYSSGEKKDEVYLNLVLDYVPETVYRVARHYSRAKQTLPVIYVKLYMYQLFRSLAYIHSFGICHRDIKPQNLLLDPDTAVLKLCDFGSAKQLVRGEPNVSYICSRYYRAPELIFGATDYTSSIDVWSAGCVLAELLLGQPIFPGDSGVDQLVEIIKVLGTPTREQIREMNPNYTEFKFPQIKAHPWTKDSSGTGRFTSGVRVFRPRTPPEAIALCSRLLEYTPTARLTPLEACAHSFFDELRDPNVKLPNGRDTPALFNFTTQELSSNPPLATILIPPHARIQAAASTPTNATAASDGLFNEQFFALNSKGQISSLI

In BindingDB's records for doi:10.1021/jm011020u (Instituto De Quimica Medica (Csic), 2002):

Biological target: T1, Glycogen synthase kinase-3 beta [7-25] (Oryctolagus cuniculus, UniProt G1T8E2)
T1 construct: 7-25
Experiment: GSK-3 Inhibition Assay
Settings: pH 7.5; 37 °C

**Q.** How did the IC50 turn out when `CCCCn1c(=O)sn(CC)c1=O` [4-butyl-2-ethyl-1,2,4-thiadiazolidine-3,5-dione] was run?
**A.** The IC50 was 70 µM.
